Test results taken from article PMC6344135, “Analgesic effects of the cathepsin K inhibitor L-006235 in the monosodium iodoacetate model of osteoarthritis pain” (Pain Reports, 2018).

The chains behind the UniProt entries cited, without tags or fusion partners. Residues count along the entry.
UniProt O35186, 115-329 limits assumed: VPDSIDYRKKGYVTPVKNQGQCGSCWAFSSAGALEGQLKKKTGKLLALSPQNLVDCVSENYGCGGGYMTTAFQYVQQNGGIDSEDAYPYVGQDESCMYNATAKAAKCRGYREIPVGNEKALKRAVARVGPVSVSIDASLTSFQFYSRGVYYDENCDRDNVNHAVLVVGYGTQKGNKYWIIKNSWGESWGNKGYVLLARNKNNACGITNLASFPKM

How the values were obtained:
[1] = tested on: monosodium iodoacetate rat model of OA pain; experiment: Weight-bearing asymmetry in the MIA model of OA pain
Description: (§1) Rats were briefly anesthetized (isoflurane 2.5%–3% in 100% O2), and once areflexic received a single intra-articular injection of 1 mg MIA (Sigma, Gillingham, Dorset, United Kingdom) in 50-μL saline or 50-μL saline through the infrapatellar ligament of the left knee.[37] Pain behaviour was assessed at baseline before injection (day 0) and then after intra-articular injection twice weekly. Weight distribution on the left (ipsilateral) and right (contralateral) hind limb was assessed using an incapacitance tester (Linton Instrumentation Diss, Norfolk, United Kingdom) as previously described.[37] Changes in hind paw withdrawal thresholds (PWTs) were assessed using von Frey monofilaments; Linton Instrumentation, Norfolk, United Kingdom (Semmes-Weinstein monofilaments of bending forces 0.4–26 g) as previously described.[37]
(§2) In the first study, the effects of preventative treatment with 30-mg/kg L-006235 were studied. In the second study, the effects of preventative treatment with 30-mg/kg and 100-mg/kg L-006235 were studied. Rats received either vehicle (20% HP-β-CD) or L-006235 starting 1 day before MIA injection. L-006235 was administered orally twice a day for a total of 28 days (day −1 to 27 after MIA injection). Pain behaviour was measured at baseline before MIA injection and then twice a week until day 27. Pain behaviour was measured before the first dose of the day and was measured 24 hours after blood sampling (see below). In the third study, L-006235 was given once pain behaviour was established in the MIA model (therapeutic protocol). In this case, all rats received oral treatment with vehicle (twice daily) for the first 14 days after intra-articular injection of MIA. On day 14, half of the rats continued receiving vehicle and the other half received L-006235 (100 mg/kg) twice daily for 27 days (day 14–41 after MIA injection). As with the preventative study, pain behaviour was measured before the MIA injection and then twice a week until day 41 after injection. Similarly, behaviour was measured before rats received the first oral dose each day and was measured 24 hours after blood sampling (see below). See Table 1 for group sizes and Figure 1 for further study design.
All statistics were calculated using Prism 5.0 or 7.0 software (Graphpad, La Jolla, CA). Weight-bearing data were analysed with a 2-way analysis of variance (ANOVA) with a Bonferroni post hoc test. Hind PWTs were log-transformed before analysis with 2-way ANOVA with a Bonferroni post hoc test. Differences between the area under the curve for weight bearing and the log-transformed PWTs were analysed using a 1-way ANOVA. Data were considered significant if P values were less than 0.05. Differences in the expression of the cathepsin K mRNA between saline and MIA-injected rats, and the differences in GFAP immunoreactivity between L-006235 and vehicle-dosed MIA rats were compared with an unpaired t test. The statistical interaction between weight bearing and each OA feature (cartilage damage, osteophytes, or synovitis) was examined using a product term for Treatment Group*OA Pathology. Statistical significance of the interaction term provides a measure of the association between weight-bearing pain behaviour and OA pathology, and the effect of L-006235 on this association.

rat cathepsin K = rat cathepsin K (Rattus norvegicus, UniProt O35186); experiment: Inhibition of rat cathepsin K; type: biochemical; settings: read-out: IC50 against rat cathepsin K; no method or reference given
[2] = tested on: monosodium iodoacetate rat model of OA pain; experiment: Histological scoring of knee joint pathology in the MIA model
Description: On day 27 (preventative studies) or day 41 (therapeutic study), rats underwent a final pain behaviour assessment and then were euthanized with sodium pentobarbital and transcardially perfused with saline, followed by 4% paraformaldehyde (in 0.1-M phosphate-buffered saline). Tibiofemoral joints with the synovia attached were dissected and postfixed in paraformaldehyde for 48 hours and were then transferred into ethylenediaminetetraacetic acid (EDTA) solution for decalcification. Knees were then sectioned for staining with haematoxylin and eosin.[10] The pathology scoring was performed on 3 stained sections per rat[10] as previously described.[37] Cartilage damage and osteophytes were scored using the Janusz method as previously described.[17] Cartilage damage was evaluated from 1 (minimal superficial damage) to 5 (severe full-thickness degeneration to tidemark). This score was multiplied by the extent of cartilage area involved (1/3, 2/3 or 3/3) to give a maximum score of 15. Osteophytes were graded from 1 to 3 for mild (<40 µm), moderate (40–160 µm), or severe (>160 µm). Synovitis was scored to assess lining thickness and cellularity from a scale of 0 (lining layer, 1–2 cells thick) to 3 (lining layer >9 cells thick and/or severe increase in cellularity).[2]

[3] = tested on: CD68+ and CD206+ cells in the synovium; experiment: Synovial immunohistochemistry for CD68 and CD206 macrophages; settings: preventative, second preventative study, 27 days after MIA
Description: Perfusion-fixated knee joint sections from the second preventative experiment were labelled for the macrophage markers CD68 and CD206 (2 sections per rat). Sections were first dewaxed in xylene before being rehydrated in decreasing concentrations of ethanol (100%, 70%) before being incubated in distilled H2O. Sections were then incubated in a Tris-EDTA buffer (10-mM Tris Base, 1-mM EDTA, 0.05% Tween 20, pH 9.0) at 90°C for 20 minutes. After returning to room temperature, sections were washed in 0.05M Tris-buffered saline (TBS) before being blocked for 10 minutes with a peroxidase blocking solution (BLOXALL, Vector Labs, Burlingame, CA). Sections were washed again in 0.05M TBS before being incubated for an hour in blocking serum (made up as described in the Vectastain Elite ABC-HRP Kit [Vector Labs, PK-6200]). Sections were then incubated in either 1:400 rabbit antimannose (Abcam, Cambridge, United Kingdom: ab64693) or 1:400 mouse anti-CD68 (BioRad, Watford, United Kingdom: MCA341GA) overnight. […] Images were thresholded, and the number of above threshold particles was automatically counted. […] The area of synovia images was calculated, and data are presented as the number of positively stained cells per square millimeter.

CTX-II = experiment: Serum CTX-II biomarker in naive rats; settings: single oral dose 100 mg/kg
Description: (§3) To assess the effects of L-006235 on biomarkers of bone resorption and cartilage degradation, a single dose of L-006235 (100 mg/kg) or vehicle (20% HP-β-CD) was administered through oral gavage to a separate group of naive rats (n = 3/group), and blood (app. 100 µL) was collected at baseline (before dosing) and at 1, 3, 6, and 24 hours after dosing for biomarker analyses. Levels of CTX-I and CTX-II in rat serum were measured using commercially available kits (RatLaps [CTX-I] EIA and Serum Pre-Clinical CartiLaps [CTX-II] ELISA; IDS Nordic, Herlev, Denmark), according to the recommendations by the manufacturer.

[4] = tested on: GFAP in the dorsal horn of the spinal cord; experiment: Spinal cord GFAP immunofluorescence; settings: preventative 100 mg/kg, 27 days after MIA
Description: Astrogliosis was assessed in the dorsal horn of the spinal cord using perfused tissue from study 2: preventative 100-mg/kg L-006235. The lumbar region of spinal cords from MIA rats treated with either vehicle or L-006235 was sectioned (40-µm thick sections). Immunolabelling for glial fibrillary acidic protein (GFAP) was performed as previously described,[35] with sections incubated with 1:100 rabbit anti-GFAP (Abcam: ab48050) overnight at room temperature. Sections were then developed after being incubated with 1:300 Alexafluor 568 conjugated goat antirabbit secondary antibody. Images were taken from the superficial laminae of both the ipsilateral and contralateral dorsal horn with a Zeiss 200M microscope using a 20 × 0.8 numerical aperture objective lens. Images were autothresholded using the Renyi entropy threshold value,[19] and the suprathreshold areas of labelling were then quantified using ImageJ software.

[5] = tested on: collagen-induced arthritis model; settings: 25 mg/kg/d, cited from earlier work
[6] = tested on: cathepsin K vs cathepsins B, L, and S; settings: cited from earlier work
ACLT model of OA = settings: cited from earlier work
mouse cathepsin S = settings: read-out: inhibitory effect on mouse cathepsin S; kind of quantity not given; cited from earlier work
CTX-I = experiment: Serum CTX-I biomarker in naive rats; settings: single oral dose 100 mg/kg
Description: as §3

[7] = tested on: monosodium iodoacetate rat model of OA pain; experiment: Hind paw withdrawal thresholds (von Frey) in the MIA model
Description: as §1
as §2, with “In the third study, L-006235 was given once pain behaviour was established in the MIA model (therapeutic protocol). In this case, all rats received oral treatment with vehicle (twice daily) for the first 14 days after intra-articular injection of MIA. On day 14, half of the rats continued receiving vehicle and the other half received L-006235 (100 mg/kg) twice daily for 27 days (day 14–41 after MIA injection).” left out, “See Table 1 for group sizes and Figure 1 for further study design.” left out
All statistics were calculated using Prism 5.0 or 7.0 software (Graphpad, La Jolla, CA). Weight-bearing data were analysed with a 2-way analysis of variance (ANOVA) with a Bonferroni post hoc test. […] Differences between the area under the curve for weight bearing and the log-transformed PWTs were analysed using a 1-way ANOVA. […]

[8] = Plasma pharmacokinetics of L-006235 after repeat oral dosing; settings: for AUC0–24 / Cmax / Tmax: second preventative study
Description: Blood was collected from the L-006235–treated animals for bioanalysis of L-006235 on day 8, 22, and 27 after MIA induction in the first study, on day 9 and 27 after MIA induction in the second study and on day 40 after MIA induction in the third (therapeutic) study (app. 500 µL). Blood was collected through the tail vein at 1, 2, 3, 6, and 24 hours after the dose. In total, 1 to 3 blood samples were collected from each rat for bioanalysis of L-006235. In the first study, samples were collected on day 8 and on day 22 at 2 hours after dose, and a third sample was collected on day 27 at 24 hours after dose. In the second study, one sample was collected at 1, 3, or 6 hours after dose at the first sampling occasion (day 9), and a second sample was collected 2 hours after dose on day 27. In the third study, one sample was collected at 3, 6, or 24 hours after dose on day 40/41. Blood was collected from all animals into separate Li-heparin–coated tubes for plasma separation and placed in room temperature for at least 30 minutes and protected from light before centrifugation (10 minutes, 3600 rpm, at approximately 22°C) within 1 hour of collection. The plasma samples were immediately frozen and stored at minimum −20°C until analysis.
Bioanalysis of L-006235 in rat plasma was performed using protein precipitation followed by liquid chromatography-tandem mass spectrometry detection. Plasma (10 µL) was mixed with 50 µL of acetonitrile containing 100 nM of losartan and indinavir as internal standards. The sample was centrifuged at 20,000g for 10 minutes at 10°C, and the supernatant was diluted 1:1 with MilliQ water. Samples (5 μL) were injected onto the liquid chromatography-tandem mass spectrometry system. The lower limit of quantification (LLOQ) was 1 nM.
Pharmacokinetic (PK) data analysis was performed using the software Phoenix WinNonlin (version 6.4; Certara). Pharmacokinetic data for L-006235 were analysed using noncompartmental methodology, and the following PK parameters were reported: • (1) The area under the plasma concentration vs time curve from time 0 to time 24 hours (AUC0–24) was calculated by the log/linear trapezoidal method. The last sampling time point was 24 hours after dose. • (2) Maximal plasma concentration (Cmax). • (3) Time at maximal concentration (Tmax).

[9] = preventative 30 mg/kg oral twice daily, first preventative study, vs vehicle
[10] = MIA-injected rats, 30 mg/kg oral twice daily
[11] = MIA-injected rats, 100 mg/kg oral twice daily
[12] = saline-injected rats, 100 mg/kg oral twice daily

pIC50 (rat cathepsin K): 8.15
AUC0–24 [8, 10]: 6.8 µM·h
Cmax [8, 10]: 0.7 µM
Tmax [8, 10]: 1.0 h
AUC0–24 [8, 11]: 49 µM·h
Cmax [8, 11]: 5.8 µM
Tmax [8, 11]: 1.0 h
AUC0–24 [8, 12]: 39 µM·h
Cmax [8, 12]: 6.9 µM
Tmax [8, 12]: 1.0 h
Structure (SMILES): CN1CCN(c2nc(-c3ccc(C(=O)NC4(C(=O)NCC#N)CCCCC4)cc3)cs2)CC1
MIA-induced weight-bearing asymmetry [1, 9]: significantly attenuated
weight-bearing asymmetry ([1]; preventative 100 mg/kg oral twice daily, second preventative study, later time points, vs vehicle): nearly abolished
weight-bearing asymmetry ([1]; preventative 30 and 100 mg/kg oral twice daily (both doses), second preventative study, from day 14 onwards): consistently inhibited
early peak in weight-bearing asymmetry ([1]; preventative 30 and 100 mg/kg, second preventative study, day 3): neither dose of L-006235 altered
established weight-bearing asymmetry ([1]; therapeutic 100 mg/kg oral twice daily from day 14 to 41, vs MIA vehicle): significant inhibitory effect
joint damage (cartilage damage, synovitis, osteophyte score) ([2]; preventative 30 and 100 mg/kg, end of study day 27): Neither dose of L-006235 significantly altered
joint features (cartilage damage, synovitis, osteophyte score) ([2]; therapeutic 100 mg/kg from day 14 to 41 after MIA): did not alter any of the joint features studied
number of CD68+ cells in the synovium [3]: lower compared with vehicle-treated rats
number of CD206+ cells in the synovium [3]: no significant effect
reduction of serum CTX-II levels compared with baseline (CTX-II; 1 hour after dose): 42%
reduction of serum CTX-II levels compared with baseline (CTX-II; 3 hours after dose): 24%
serum CTX-II levels (CTX-II; 6 hours after dose): returned to baseline
GFAP immunolabelling in the dorsal horn of the spinal cord [4]: did not alter
cartilage and bone damage, and clinical score ([5]; preventative): significantly attenuated
cartilage and bone damage, and clinical score ([5]; therapeutic, once clinical signs established): did not have significant effects
selectivity for cathepsin K vs cathepsins B, L, and S [6]: more than 5000 fold
urine CTX-II levels (ACLT model of OA; 50 mg/kg/d for 7 weeks from 1 week after surgery, at 3 weeks after treatment): significantly lowered
Mankin score of joint pathology (ACLT model of OA; after 7 weeks of treatment, vs vehicle-treated rabbits): significantly lower
pIC50 (mouse cathepsin S): 5.62
reduction of serum CTX-I levels compared with baseline (CTX-I; 1 hour after dose): 20%
reduction of serum CTX-I levels (CTX-I; 3 hours after dose): No significant reductions
MIA-induced lowered hind paw withdrawal thresholds [7, 9]: significantly attenuated
hind paw withdrawal thresholds ([7]; preventative dosing, second preventative study, from day 7 onwards): prevent any further lowering in thresholds
lowered hind paw withdrawal thresholds ([7]; therapeutic 100 mg/kg oral twice daily from day 14, vs vehicle): did not alter
dose proportionality of plasma exposure ([8]; dose increased from 30 to 100 mg/kg oral twice daily): more than dose-proportional increase in exposure

pIC50: −log10 of the molar value. Where two headings read alike, the source gives them in different places.
